Test results: patent publication US20050164951A1, “Inhibitors for the soluble epoxide hydrolase” (The Regents of the University of California, priority 2003, published 2005)

Sequences of proteins named here, by UniProt entry; tags and fusion partners are left off.
UniProt P34914, whole entry: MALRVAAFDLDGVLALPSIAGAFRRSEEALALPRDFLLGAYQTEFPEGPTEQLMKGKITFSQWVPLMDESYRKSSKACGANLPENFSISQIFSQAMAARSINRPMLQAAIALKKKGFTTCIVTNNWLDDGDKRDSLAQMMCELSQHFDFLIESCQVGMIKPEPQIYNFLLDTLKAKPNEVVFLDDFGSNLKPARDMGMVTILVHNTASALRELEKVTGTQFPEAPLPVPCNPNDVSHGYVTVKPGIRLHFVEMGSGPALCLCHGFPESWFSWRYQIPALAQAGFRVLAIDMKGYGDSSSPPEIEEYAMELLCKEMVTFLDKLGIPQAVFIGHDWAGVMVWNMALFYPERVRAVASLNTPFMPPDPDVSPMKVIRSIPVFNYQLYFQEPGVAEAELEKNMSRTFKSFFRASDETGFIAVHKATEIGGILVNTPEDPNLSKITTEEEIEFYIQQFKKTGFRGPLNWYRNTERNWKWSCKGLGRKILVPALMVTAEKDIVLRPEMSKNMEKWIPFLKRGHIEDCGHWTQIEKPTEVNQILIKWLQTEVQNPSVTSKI

Molecular target: mouse sEH (Mus musculus, UniProt P34914)
Assay: Inhibition of recombinant mouse sEH, IC50 assay with 4-nitrophenyl-trans-2,3-epoxy-3-phenylpropyl carbonate as substrate
Format: biochemical
Settings: read-out: Mouse sEH IC50; Table 10; unpurified reaction solutions used directly, theoretical concentration 10 mM; means ± SD of three experiments

IC50, > 50 µM:
O=C(CCCNC(=O)NC1CCCCC1)N[C@@H](CO)C(=O)O
O=C(O)C[C@H](NC(=O)CCCNC(=O)NC1CCCCC1)C(=O)O
CC(C)[C@H](NC(=O)CCCNC(=O)NC1CCCCC1)C(=O)O
